How the values were obtained:
[1] = biological target: T1, human 5-hydroxytryptamine2C (h5HT2C) receptor (Homo sapiens, UniProt P28335); assay: 5HT2C receptor binding ([125I]DOI displacement, CHO cell membranes); conditions: [125I]DOI binding, CHO membranes expressing h5HT2C; 95% confidence interval in brackets; read-out: Ki (95% confidence interval), reference compounds
T1 construct: expressed in transfected cells; host or cells: CHO (Chinese Hamster Ovary) cells; membrane preparation

By UniProt entry, the sequences of proteins in these tests, tags left out. Residues count along the entry.
UniProt P28335, 33-458: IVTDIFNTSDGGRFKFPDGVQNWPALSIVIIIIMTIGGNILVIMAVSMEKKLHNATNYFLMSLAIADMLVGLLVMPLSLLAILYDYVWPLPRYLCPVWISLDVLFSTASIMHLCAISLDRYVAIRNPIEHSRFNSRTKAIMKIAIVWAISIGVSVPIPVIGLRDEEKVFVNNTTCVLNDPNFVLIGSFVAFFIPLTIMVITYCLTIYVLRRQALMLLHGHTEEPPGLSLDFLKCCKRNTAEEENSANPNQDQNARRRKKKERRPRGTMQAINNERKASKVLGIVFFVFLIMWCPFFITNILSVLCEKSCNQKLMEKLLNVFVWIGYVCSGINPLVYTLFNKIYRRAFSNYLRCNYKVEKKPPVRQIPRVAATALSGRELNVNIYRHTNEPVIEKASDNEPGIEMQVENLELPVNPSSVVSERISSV

human 5-HT2C receptor = human 5-HT2C receptor (Homo sapiens, UniProt P28335); assay: Calcium mobilization in response to 5-HT2C receptor agonists (FLIPR, CHO cells); type: cell-based; conditions: CHO cells stably expressing human 5-HT2C, read-out: EC50, reference compounds

## Clc1cccc(N2CCNCC2)c1 [mCPP, meta-chlorophenylpiperazine, reference compound]
[1]
  Ki: 6.5 nM
Human 5-HT2C receptor
  EC50: 5.4 nM

Source: US7687620B2, “[1,4]diazepino[6,7,1-IJ]quinoline derivatives as antipsychotic and antiobesity agents” (Wyeth LLC, priority 2002, dated 2010)
